Test results taken from PubChem BioAssay (EPA / NIEHS).
The entries are a selection whose mix differs from that of the whole data set. Calls of active or inactive are those of the source. Rule for the calls: active = hit-call score of the fitted dose curve at least 0.9, where 1 is the maximum; inactive = score below 0.9.

Chains of the proteins cited; added tags and fusions are not shown.
UniProt Q9Y261, whole entry: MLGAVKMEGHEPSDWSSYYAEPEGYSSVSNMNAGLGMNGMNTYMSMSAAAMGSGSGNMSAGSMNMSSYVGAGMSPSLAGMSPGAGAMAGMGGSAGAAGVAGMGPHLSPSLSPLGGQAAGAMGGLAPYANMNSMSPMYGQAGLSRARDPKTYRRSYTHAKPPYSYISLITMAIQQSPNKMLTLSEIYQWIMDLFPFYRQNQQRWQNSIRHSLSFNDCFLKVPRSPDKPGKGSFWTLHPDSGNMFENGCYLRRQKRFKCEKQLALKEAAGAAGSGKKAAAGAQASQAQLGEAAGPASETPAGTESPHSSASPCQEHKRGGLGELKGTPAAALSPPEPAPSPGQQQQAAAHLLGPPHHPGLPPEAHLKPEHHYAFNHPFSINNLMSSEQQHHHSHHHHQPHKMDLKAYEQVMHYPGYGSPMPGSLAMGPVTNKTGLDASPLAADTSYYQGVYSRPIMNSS

Molecular target: Hepatocyte nuclear factor 3-beta (Homo sapiens) (UniProt Q9Y261)
Experiment: ATG_FoxA2_CIS: Attagene CIS-FACTORIAL HepG2 Assay for human Forkhead box A2 (FOXA2) (AID 2282942)
Conditions: HepG2 cis-reporter transcription factor activity, 24 h; actives raise or lower the signal
Protocol: ATG_CIS is a cell-based, multiplexed-readout assay that uses HepG2, a human liver cell line, with measurements taken at 24 hours after chemical dosing in a 24-well plate.ATG_FoxA2_CIS is one of 52 assay component(s) measured or calculated from the ATG_CIS assay. It is designed to make measurements of mRNA induction, a form of inducible reporter, as detected with fluorescence intensity signals by Reverse transcription polymerase chain reaction (RT-PCR) and Capillary electrophoresis technology.Data from the assay component ATG_FoxA2_CIS was analyzed into 1 assay endpoint. This assay endpoint, ATG_FoxA2_CIS, was analyzed with bidirectional fitting relative to DMSO as the negative control and baseline of activity. Using a type of inducible reporter, measures of mRNA for gain or loss-of-signal activity can be used to understand the reporter gene at the transcription factor-level as they relate to the gene FOXA2. Furthermore, this assay endpoint can be referred to as a primary readout, because this assay has produced multiple assay endpoints where this one serves a reporter gene function. To generalize the intended target to other relatable targets, this assay endpoint is annotated to the dna binding intended target family, where the subfamily is forkhead box protein.
Human liver HepG2 cells are transiently transfected with multiple reporter transcription units (MRTUs) in 6-well plates using FuGene 6 reagent (Roche; 3 ml FuGene/1 mg DNA). The MRTU constructs are regulated by a cis-regulating element (promoter). […] A major difference between the CIS and TRANS system is that in CIS activities of endogenous TFs are measured, whereas the TRANS assay evaluates changes in activities of exogenous, chimeric NR-Gal4 proteins. […] At the end of 24 hour incubation, total RNA was isolated using TriZol reagent (Invitrogen). The isolated RNA is then reverse-transcribed using oligo(dT) primer and Mo-MLV reverse transcriptase (Invitrogen) with DNAse I (Ambion) treatment for 30 min. The one-tenth of the produced cDNA was amplified by PCR using Taq DNA polymerase (Invitrogen) and two reporter sequence-specific primers. The PCR products were fluorescently labeled by primer extension with 6-arboxyfluorescein (6-FAM) 5'-labeled reporter sequence-specific primer (2 min at 95 C, 20 s at 68 C and 10 min at 72 C) and these products were digested with 5U of HpaI (New England Biolabs) for 2h at 37 C. The fragments were purified using Qiaquick PCR columns (Qiagen), analyzed on an ABI 3130xL genetic analyzer (Applied Biosystems) with peak positions identified by using a set of X-rhodamine (ROX)-labeled MapMarker1000 molecular weight standards (BioVentures). The raw capillary electrophoresis data was processed using Attagraph software (Attagene).

| Compound | outcome |
| --- | --- |
| CC(C)N(CCO)C(C)C | inactive |
| COc1ccc([N+](=O)[O-])cc1[N+](=O)[O-] | inactive |
| CN(C)CCCl | inactive |
| Cc1c([N+](=O)[O-])cccc1[N+](=O)[O-] | inactive |
| Cc1ccc([N+](=O)[O-])cc1[N+](=O)[O-] | inactive |
| O=[N+]([O-])c1cccc([N+](=O)[O-])c1 | inactive |
| N#CBr | inactive |
| COP(C)(=O)OC | inactive |
| O=[N+]([O-])OCC(CO[N+](=O)[O-])(CO[N+](=O)[O-])CO[N+](=O)[O-] | inactive |
| Cc1ccc([N+](=O)[O-])c([N+](=O)[O-])c1 | inactive |
| Cc1cccc([N+](=O)[O-])c1[N+](=O)[O-] | inactive |
| CC(C)OP(C)(=O)OC(C)C | inactive |
